## Binding of CDR-mutated scFvs to a peptide of the spike HR2 region

Source: Engelhart et al. 2022 (doi:10.1038/s41597-022-01779-4), MIT Lincoln Laboratory and A-Alpha Bio; data file from the FLAb repository.

Antigen: PDVDLGDISGINAS, a 14-residue peptide of the SARS-CoV-2 spike HR2 region.

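The library (AAYL50) carries one to three amino acid substitutions per variant, with no insertions or deletions. Affinity was read by AlphaSeq, a pooled yeast mating assay with surface-displayed partners. The frequency of each diploid, read from paired DNA barcodes, reflects how well the two displayed proteins bind. Scores were corrected for input abundance and mapped to Kd with protein pairs of known affinity run in the same pool. The assay was run in three technical replicates.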

The variants keep the heavy chain, the linker and the frameworks of Ab-14 (scFv order VH, a 15-residue (Gly4Ser)3 linker, VL).
VH: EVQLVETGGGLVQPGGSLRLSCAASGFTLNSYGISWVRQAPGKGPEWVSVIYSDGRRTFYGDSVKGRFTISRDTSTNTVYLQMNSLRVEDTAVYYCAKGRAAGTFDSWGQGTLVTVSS
VL: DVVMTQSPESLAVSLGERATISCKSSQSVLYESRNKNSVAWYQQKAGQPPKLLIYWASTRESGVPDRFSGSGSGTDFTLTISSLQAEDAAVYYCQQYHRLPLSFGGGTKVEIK

Changes read parent residue, position, new residue, counted from the first residue of the VL shown.
Scale: log10 of Kd in nM, estimated from mating counts; low values are strong binders.
Where no diploid with the target was found in that replicate, the entry reads "nd": below detection, most likely a poor binder, though not proof of it.
For reference, the parent read 0.65 as the reference entry and 1.68 as a member of this library.
Background: pairings of library AAYL50 with three empty control strains gave a value in 18% of cases (median 4.19, 5th percentile 2.99). Values in that range, when seen in few replicates, are hard to tell from nonspecific mating. The control count says in how many pairings with the empty strains this scFv gave a signal, with their mean in brackets.

changes | replicates, log10 nM | signal with controls
K24A/N37W/R99Q | 2.58 2.44 2.82 | 2/9 (4.54)
K24L/L30A/Y97F | 3.25 nd 4.19 | 0/9
Y31C/S38L/R60P | nd nd nd | 0/9
S25V/R34E/Q95W | nd nd nd | 0/9
S33D/K36N/Y97V | 4.11 5.31 3.16 | 3/9 (4.11)
K24V/V39Y/W56C | nd nd nd | 0/9
S25G/S28P/L100T | 4.68 3.11 nd | 1/9 (4.00)
V29H/Y31W/S62A | nd nd nd | 0/9
S28M/Y31F/S62V | 0.88 1.05 1.01 | 0/9
E32V/S33A/A57S | nd 4.92 nd | 2/9 (3.87)
Y31C/E32I/S103P | 2.52 2.23 2.74 | 1/9 (2.59)
W56M/Q96V/Y97A | 1.63 1.60 1.62 | 2/9 (4.18)
V29H/Q95R | nd nd nd | 0/9
Q27G/S28G/Q95Y | 1.88 1.89 1.93 | 0/9
S26N/S33C/A57E | 2.79 3.07 3.58 | 4/9 (4.58)
V29N/K36V/S62D | 0.48 0.72 0.62 | 1/9 (4.71)
Y31P/A57D/Y97C | nd nd nd | 1/9 (3.18)
V29T/N35H/S38V | nd nd 3.07 | 0/9
Q27V/N35I/S62I | 2.21 2.20 2.64 | 0/9
A57R/E61M/Q96I | nd 2.87 3.69 | 0/9
H98F/P101C/L102K | nd nd nd | 2/9 (2.76)
Q27C/V39K/H98I | 4.04 3.52 3.56 | 2/9 (3.33)
S28E/T59Y/H98I | 1.85 1.92 2.76 | 1/9 (3.60)
S28E/Y31D | 0.00 0.23 0.14 | 0/9
R34G/A40I/T59I | 3.10 nd nd | 0/9
Q27C/S58D/Q96I | nd nd nd | 0/9
E32M/N37T/Q95T | 5.59 4.43 nd | 5/9 (4.00)
S25I/V39A/A40K | nd 3.38 nd | 3/9 (3.80)
V29E/Q96E/L102R | 0.54 0.88 0.74 | 1/9 (3.73)
V39D/W56E | nd 2.66 nd | 0/9
A57Y/T59E | nd nd nd | 2/9 (3.98)
Y31S/A40V/R60Y | nd 3.75 nd | 2/9 (3.81)
S58R/H98K | 2.03 2.02 2.48 | 3/9 (3.98)
N37I/P101M | 0.26 0.61 0.45 | 1/9 (3.22)
L30E/Q95V | 0.14 0.49 0.21 | 0/9
N37W/V39K/Q96Y | nd nd nd | 0/9
S25V/S26D/H98W | nd nd nd | 1/9 (2.41)
K24G/T59P/S103W | nd 3.39 nd | 1/9 (4.27)
K24I/E32C/A57K | nd nd nd | 1/9 (5.24)
W56E/A57P/R99N | 3.61 4.46 3.77 | 6/9 (4.83)
R34Y/Q95Y | nd nd nd | 0/9
R34M/K36Q/L100T | nd nd nd | 2/9 (3.91)
T59P/L102M | nd nd nd | 2/9 (4.39)
T59Y/E61S/Q95V | nd nd nd | 0/9
N37C/Q95M/R99S | nd nd nd | 1/9 (3.80)
A40T/Y97P/R99G | nd nd 3.58 | 3/9 (4.13)
Q27N/N35V/Q96F | 1.94 2.21 1.87 | 1/9 (3.78)
S33N/A40P/P101C | nd 4.36 nd | 2/9 (3.17)
R34D/A57D/E61N | 0.48 0.77 0.66 | 7/9 (4.51)
H98E/L100Y | 0.63 0.76 0.48 | 1/9 (3.46)
Q27L/W56F/Q95F | nd 5.07 nd | 2/9 (3.61)
S26C/S33T/E61G | nd nd nd | 0/9